Source: US20140323418A1

Molecular target: full length active recombinant SYK enzyme (Homo sapiens, UniProt P43405)
Test: Inhibition of Syk tyrosine phosphorylation activity (LANCE TR-FRET kinase assay)
Type: biochemical
Details: read-out: Syk IC50; 1 nM SYK, 550 nM substrate, 100 μM ATP, 1 hour room temperature

Work on NC(=O)c1cnc(N[C@H]2[C@@H](N)CCCC2(F)F)nc1Nc1cccc(-n2nccn2)c1 yielded an IC50 of 1 to 10 nM.
